{"source": "patent US4261883A", "about": "(priority 1979, dated 1981)", "tested_on": "opioid receptors in P3 from bovine caudate nucleus homogenate", "experiment": "stereospecific binding by competition with 3H-etorphine, P3 from bovine caudate nucleus homogenate", "details": "read-out: Kd in binding to P3 from bovine caudate nucleus homogentate; by competition with 3H-etorphine binding to P3, 25°"}
{"compound": "Oc1ccc2c3c1O[C@H]1[C@@H](O)C=C[C@H]4[C@@H](C2)NCC[C@@]341", "note": "[normorphine]", "values": [{"measurement": "Kd", "value": 90, "unit": "nM"}]}
